Measured values: PMC8129907, “Vancomycin bone and tissue concentrations following tibial intraosseous administration – evaluated in a porcine model” (Journal of Bone and Joint Infection, 2021)
Where two headings read alike, the source gives them in different places. Marks after values point to notes of the source that are not given here.

Details: pig, 500 mg intraosseous, no tourniquet, microdialysis, mean (SD), n = 8

In the case of CN[C@H](CC(C)C)C(=O)N[C@H]1C(=O)N[C@@H](CC(N)=O)C(=O)N[C@H]2C(=O)N[C@H]3C(=O)N[C@H](C(=O)N[C@H](C(=O)O)c4cc(O)cc(O)c4-c4cc3ccc4O)[C@H](O)c3ccc(c(Cl)c3)Oc3cc2cc(c3O[C@@H]2O[C@H](CO)[C@@H](O)[C@H](O)[C@H]2O[C@H]2C[C@](C)(N)[C@H](O)[C@H](C)O2)Oc2ccc(cc2Cl)[C@H]1O [vancomycin], the “Cmax (peak drug concentration)” value (intramedullary canal in the tibia) is reported as 8.2 (4) ^a µg/mL, the “Cmax (peak drug concentration)” value (subcutaneous tissue) is reported as 7.7 (3) ^a µg/mL and the “Cmax (peak drug concentration)” value (synovial fluid of the knee joint) is reported as 6.5 (4) ^a µg/mL. For the same molecule, the “Cmax (peak drug concentration)” value (tibial cortical bone) was 1 (1) µg/mL.
